In PubChem BioAssay AID1460 (National Center for Advancing Translational Sciences (NCATS), 2008):
The entries are a selection whose mix differs from that of the whole data set. Results filed as inconclusive are left out. Activity calls are given as the source filed them. The call rests on the fitted dose curve; in most records, active means well fitted inhibition curve with a large enough effect; inconclusive means small, poorly fitted or top-dose-only effect; inactive means flat fitted curve, though single readings scatter.

By UniProt entry, the sequences of proteins in these tests, tags left out. Residues count along the entry.
UniProt P10636, 561-689 P618L limits assumed: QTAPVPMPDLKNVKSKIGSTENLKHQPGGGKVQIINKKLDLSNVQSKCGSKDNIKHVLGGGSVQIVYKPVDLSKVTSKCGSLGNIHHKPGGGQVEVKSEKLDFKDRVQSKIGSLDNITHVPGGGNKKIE

Molecular target: Microtubule-associated protein tau (Homo sapiens) (UniProt P10636)
Assay: qHTS for Inhibitors of Tau Fibril Formation, Thioflavin T Binding; further: nearly all actives have a fitted effect of over 55% in size
Settings: recombinant tau K18 P301L (four-repeat tau fragment), heparin-induced fibrillization, ThT fluorescence; at 57.4 µM (top of the series)
On the % scale 0 is the no-effect control and ±100 the full control effect.

Compound	activity, negative = inhibition
O=[N+]([O-])c1cc([N+](=O)[O-])c(-n2nnc3ccccc32)c([N+](=O)[O-])c1	inactive: -5.41%
CCCOc1ccc(NP(C)(=O)Oc2ccc(Cl)cc2)cc1 (stereo not given)	inactive: -12.1%
CP(=O)(Nc1ccc(SC(F)(F)F)cc1)Oc1ccccc1 (stereo not given)	inactive: -3.6%
COc1ccccc1OP(C)(=O)Nc1c(C)cccc1C (stereo not given)	inactive: -2.37%
CN1CCCCC1COC(=O)C1(O)c2ccccc2CCc2ccccc21 (stereo not given)	inactive: -1.21%
O=[N+]([O-])OCC(CO[N+](=O)[O-])(CO[N+](=O)[O-])CO[N+](=O)[O-]	inactive: -5.23%
Cc1cc(C)cc(OP(C)(=O)Nc2ccc(C)cc2C)c1 (stereo not given)	inactive: -16.3%
CCOC(=O)c1ccc(NP(C)(=O)Oc2cc(C)cc(C)c2)cc1 (stereo not given)	inactive: -13.3%
Cc1cc(C)cc(OP(C)(=O)Nc2ccccn2)c1 (stereo not given)	inactive: -4.82%
CP(=O)(Nc1cccc(Br)c1)Oc1ccccc1 (stereo not given)	inactive: -3.31%
Cc1ccc(C)c(NP(C)(=O)Oc2ccccc2)c1 (stereo not given)	inactive: 4.21%
CCN(CC)CCCOC(=O)C(O)(c1ccccc1)c1ccccc1	inactive: 1.33%
CC(C)(C)c1ccc(OP(C)(=O)Nc2ccc(SC(F)(F)F)cc2)cc1 (stereo not given)	inactive: -18.5%
Cc1cccc(C)c1OP(C)(N)=O (stereo not given)	inactive: -5.89%
COc1ccccc1OP(C)(=O)Nc1cc(Cl)ccc1C (stereo not given)	inactive: -12.4%
COc1ccc(OP(C)(=O)Nc2cccc(F)c2)cc1 (stereo not given)	inactive: -11.8%
Cc1cc(C)cc(OP(C)(N)=O)c1 (stereo not given)	inactive: -6.09%
CCOC(=O)c1ccc(NP(C)(=O)Oc2ccccc2)cc1 (stereo not given)	inactive: -5.86%
COc1ccccc1OP(C)(=O)Nc1ccc(C)cc1 (stereo not given)	inactive: -7.82%
Cc1ccc(NP(C)(=O)Oc2ccccc2)c(C)c1 (stereo not given)	inactive: 3.84%
COc1ccccc1OP(C)(=O)Nc1ccccc1 (stereo not given)	inactive: 0.0739%
CP(=O)(Nc1ccccc1Br)Oc1ccccc1 (stereo not given)	inactive: -8.55%
CP(=S)(Nn1cnnc1)Oc1ccccc1 (stereo not given)	inactive: -5.69%
CP(=O)(NC(=O)Nc1ccccc1)Oc1ccccc1 (stereo not given)	inactive: -6.58%

Compound	activity, negative = inhibition
Cc1cc(C)cc(OP(C)(=O)Nc2ccc(SC(F)(F)F)cc2)c1 (stereo not given)	inactive: -17.8%
Cc1cccc(C)c1OP(C)(=O)Nc1ccc(SC(F)(F)F)cc1 (stereo not given)	inactive: -5.26%
CP(=O)(Oc1ccccc1)OC(c1ccccc1)C(F)(F)F (stereo not given)	inactive: -1.56%
CP(=O)(Nc1ccccn1)Oc1ccc(Cl)cc1 (stereo not given)	inactive: 0.777%
CCOP(C)(=S)SCC(=O)NC(C)C(=O)O (stereo not given)	inactive: -7.3%
CCOC(=O)c1ccc(NP(C)(=O)Oc2ccc(OC)cc2)cc1 (stereo not given)	inactive: -7.35%
CP(=O)(Oc1ccccc1)N1CCOC1=O (stereo not given)	inactive: -6.34%
CCc1ccc(OP(C)(=O)Nc2cccnc2)cc1 (stereo not given)	inactive: 0.123%
COc1ccccc1OP(C)(=O)Nc1c(C)n(C)n(-c2ccccc2)c1=O (stereo not given)	inactive: -5.57%
OCCSCCO	inactive: 1.87%
O=C(OCCCN1CCCC1)C(O)(c1ccccc1)C1CCCCC1 (stereo not given)	inactive: -7.3%
CCN(CC)CC(O)COC(=O)C(O)(c1ccccc1)C1CCCCC1 (stereo not given)	inactive: -10.6%
COc1ccc(OP(C)(=O)Nc2ccc(Br)cc2)cc1 (stereo not given)	inactive: 2.98%
CN(C)C(=O)c1c([N+](=O)[O-])cc([N+](=O)[O-])cc1[N+](=O)[O-]	inactive: -18.8%
CP(=O)(Nc1ccc(Cl)cc1)Oc1ccc(F)cc1 (stereo not given)	inactive: -0.165%
COc1ccccc1OP(C)(=O)Nc1ccccc1Br (stereo not given)	inactive: -4.61%
CC(C)(C)c1ccc(OP(C)(=O)O)cc1	inactive: 0.447%
CP(=O)(OC12CC3CC(CC(C3)C1)C2)OC12CC3CC(CC(C3)C1)C2	inactive: -15.4%
CCOC(=O)c1ccc(NP(C)(=O)Oc2ccc(Cl)cc2)cc1 (stereo not given)	inactive: -6.1%
COc1ccc(OP(C)(=O)Nc2ccccc2Br)cc1 (stereo not given)	inactive: -7.9%
COc1ccccc1OP(C)(=O)Nc1ccc(C)c(C)c1 (stereo not given)	inactive: 2.48%
Cc1cc(C)cc(OP(C)(=O)Nc2cccc(C(F)(F)F)c2)c1 (stereo not given)	inactive: -1.5%
CP(=O)(Nc1ccc(Cl)cc1Cl)Oc1ccccc1 (stereo not given)	inactive: -2.03%
CP(=O)(OCCOc1ccccc1)OCCOc1ccccc1	inactive: -3.67%

Compound	activity, negative = inhibition
CN(C)CCOC(=O)C(O)(c1ccccc1)C1CCCC1 (stereo not given)	inactive: -10.1%
COc1ccc(OP(C)(=O)Nc2ccccn2)cc1 (stereo not given)	inactive: -8.76%
CCc1ccc(OP(C)(=O)O)cc1	inactive: -3.56%
CP(=O)(Nc1ccccn1)Oc1ccccc1 (stereo not given)	inactive: 4.07%
COc1ccccc1OP(C)(=O)Nc1ccc(C)cc1C (stereo not given)	inactive: -9.75%
Cc1c(NP(C)(=O)Oc2ccc(C(C)C)cc2)c(=O)n(-c2ccccc2)n1C (stereo not given)	inactive: 1.44%
CC(C)c1ccc(OP(C)(=O)Nc2ccc(SC(F)(F)F)cc2)cc1 (stereo not given)	inactive: -9.09%
CP(=O)(Nc1ccccc1F)Oc1ccccc1 (stereo not given)	inactive: -1.38%
O=C(OCCN1CCN(CCOCc2ccccc2)CC1)C(O)(c1ccccc1)c1ccccc1	inactive: 1.66%
COc1ccc(OP(C)(=O)Nc2ccc(SC(F)(F)F)cc2)cc1 (stereo not given)	inactive: -2%
CCOC(=O)c1ccc(NP(C)(=O)Oc2ccc(F)cc2)cc1 (stereo not given)	inactive: 3.74%
CCCCCOc1ccc(NP(C)(=O)Oc2ccc(Cl)cc2Cl)cc1 (stereo not given)	inactive: -12.1%
CP(=O)(Nc1ccccc1)Oc1ccc(F)cc1 (stereo not given)	inactive: 0.468%
CCN(CC)CCCOC(=O)C(O)(c1ccccc1)C1CCCCC1 (stereo not given)	inactive: 3.99%
COc1ccc(NP(C)(=O)Oc2ccccc2OC)cc1 (stereo not given)	inactive: -1.58%
CN(C)CCOC(=O)C(O)(c1ccccc1)C1CCCCC1 (stereo not given)	inactive: -5.3%
COc1ccc(OP(C)(=O)Nc2cccc(Br)c2)cc1 (stereo not given)	inactive: -9.83%
O=[N+]([O-])c1ccc(OP2(=O)COCCO2)cc1 (stereo not given)	inactive: -5.22%
CCOP(C)(=S)SCC(=O)NC(C)(CC)C(=O)O (stereo not given)	inactive: -12.4%
CP(=O)(Nc1ccc(SC(F)(F)F)cc1)Oc1ccc(F)cc1 (stereo not given)	inactive: 6.76%
Cc1ccccc1NP(C)(=O)Nc1ccccc1C	inactive: 6.56%
CP(=O)(Nc1ccc2c(c1)OCCO2)Oc1ccccc1 (stereo not given)	inactive: -3.66%
